The list shows a part of the results, in another mix than the full data. Records with an inconclusive call do not appear. Active and inactive are the calls of the source.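 Rule for the calls: active = fluorescent ligand binding to cells raised by more than 40% of the manganese-induced maximum; inconclusive = compound's own fluorescence above 85% of the ligand control signal; inactive = the rest.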
Each compound was assayed against Integrin alpha-4 (Homo sapiens) (UniProt P13612) (assay: enhancers of LDV-FITC binding to VLA-4 integrin, primary screen, Jurkat cells, flow cytometry (AID 528;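 note: 0% = ligand binding without compound and 100% = manganese-stimulated maximal binding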)). Conditions: active compounds read high, screened at 10 µM (by protocol).

Sequences of proteins named here, by UniProt entry; tags and fusion partners are left off.
UniProt P13612, whole entry, looked up: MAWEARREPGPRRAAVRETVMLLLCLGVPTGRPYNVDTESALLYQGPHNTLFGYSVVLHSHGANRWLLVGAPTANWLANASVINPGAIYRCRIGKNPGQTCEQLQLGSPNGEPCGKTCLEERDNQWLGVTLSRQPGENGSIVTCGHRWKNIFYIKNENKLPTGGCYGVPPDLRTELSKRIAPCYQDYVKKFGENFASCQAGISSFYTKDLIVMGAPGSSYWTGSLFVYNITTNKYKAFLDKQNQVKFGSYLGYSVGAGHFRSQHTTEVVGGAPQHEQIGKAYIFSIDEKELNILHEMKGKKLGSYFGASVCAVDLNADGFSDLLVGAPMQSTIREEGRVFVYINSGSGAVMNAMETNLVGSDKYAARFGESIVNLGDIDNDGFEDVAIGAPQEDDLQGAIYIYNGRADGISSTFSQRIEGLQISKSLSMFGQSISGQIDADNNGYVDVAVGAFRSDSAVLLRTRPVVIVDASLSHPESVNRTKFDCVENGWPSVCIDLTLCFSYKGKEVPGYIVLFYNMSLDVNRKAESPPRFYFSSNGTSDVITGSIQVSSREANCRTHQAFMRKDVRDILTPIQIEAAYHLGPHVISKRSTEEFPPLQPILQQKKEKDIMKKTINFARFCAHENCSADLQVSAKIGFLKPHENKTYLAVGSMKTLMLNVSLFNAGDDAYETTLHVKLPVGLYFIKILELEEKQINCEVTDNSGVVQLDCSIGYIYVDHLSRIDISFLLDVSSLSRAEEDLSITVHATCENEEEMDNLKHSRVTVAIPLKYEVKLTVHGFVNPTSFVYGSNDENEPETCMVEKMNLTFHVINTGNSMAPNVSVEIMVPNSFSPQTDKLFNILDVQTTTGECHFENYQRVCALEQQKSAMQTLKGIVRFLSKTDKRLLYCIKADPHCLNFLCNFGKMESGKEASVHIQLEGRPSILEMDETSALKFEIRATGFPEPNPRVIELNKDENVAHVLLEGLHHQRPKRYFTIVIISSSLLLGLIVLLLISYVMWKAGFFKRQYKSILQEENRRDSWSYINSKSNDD

Question: With Fc1ccccc1NC1CCN(Cc2ccccc2)CC1 as the compound, how does the activation read?
Answer: inactive: -3.5%

Question: N#CC1(Nc2ccccc2)CCN(CCc2ccccc2)CC1 was tested. Which activation did it give?
Answer: inactive: -2%

From PubChem BioAssay AID528 (NMMLSC, 2006)
